Measured values taken from ChEMBL document CHEMBL4616713, “Discovery of Novel Nonpeptidic PAR2 Ligands” (ACS Med Chem Lett, 2020).

Biological target: T1, Proteinase-activated receptor 2 (Homo sapiens) (UniProt P55085)
T1 sequence (whole entry): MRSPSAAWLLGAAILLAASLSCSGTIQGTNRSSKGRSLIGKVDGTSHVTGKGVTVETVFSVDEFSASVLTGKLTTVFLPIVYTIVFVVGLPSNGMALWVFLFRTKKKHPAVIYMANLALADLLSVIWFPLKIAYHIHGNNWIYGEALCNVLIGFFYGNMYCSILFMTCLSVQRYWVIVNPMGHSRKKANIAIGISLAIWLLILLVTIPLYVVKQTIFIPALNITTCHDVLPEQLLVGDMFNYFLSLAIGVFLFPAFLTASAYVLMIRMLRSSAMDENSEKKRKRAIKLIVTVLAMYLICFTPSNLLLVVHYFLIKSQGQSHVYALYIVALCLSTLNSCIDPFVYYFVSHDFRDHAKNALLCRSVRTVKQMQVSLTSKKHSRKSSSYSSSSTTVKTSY
Assay: Selectivity ratio of EC50 for agonist activity at PK1-tagged PAR2 (unknown origin) expressed in HEK293 cells assessed as induction of beta-arrestin recruitment incubated for 90 mins by Pathhunter chemiluminescent assay to EC50 for agonist activity at human PAR2 expressed in HEK293T cells assessed as induction of Galphaq-stimulated IP1 formation incubated for 2 hrs by FRET assay
Type: cell-based

Ratio EC50: 14
SMILES: Cc1cc(C(=O)N[C@@H](CC2CCCCC2)C(=O)NCc2ccccc2CC(N)=O)on1
